The values below come from PubChem BioAssay AID1347056 (Sanford-Burnham Center for Chemical Genomics, 2019).

This is a selection; strong and weak results do not stand in their true shares. Calls of active or inactive are those of the source.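 How the source made its calls: active means compounds whose plate-normalised and pattern-corrected inhibition of the luciferase reporter signal at the single screening dose is 50% or more; inactive means the rest.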

The nature of the assay: TROY pathway blockers in reporter cells – Q293 LMP1-TROYcd cells, NF-kB luciferase, uHTS, primary screen (AID 1347056). Conditions: 4 h, at 10 µM, active compounds read high.
With `O=c1[nH]c2ccccc2n1C1CCN(C(c2cccs2)c2nnnn2C2CCCCC2)CC1` (stereo not given), the inhibition is inactive: 36.4%. Next, `COc1ccc(C(=O)NCC2(N3CCOCC3)CCCCC2)cc1OC`: inactive: 9.53%; `O=c1[nH]c2ccccc2n1C1CCN(C(c2ccnc3ccccc23)c2nnnn2C2CCCC2)CC1` (stereo not given): inactive: 13.2%; `CCCCn1nnnc1C(c1ccccc1)N1CCC(n2c(=O)[nH]c3ccccc32)CC1` (stereo not given): inactive: 22.5%. Then `COc1cc(C(=O)NCC2(N3CCOCC3)CCCCC2)cc(OC)c1C`, with inactive: -13.2%; and `O=C(NCC1(N2CCOCC2)CCCCC1)c1cc(Br)ccc1Cl`, with inactive: 7.13%; and `O=C(OC1CN2CCC1CC2)C1c2ccccc2C=Cc2ccccc21` (stereo not given), with inactive: 1.31%. For the compound `O=c1[nH]c2ccccc2n1C1CCN(C(c2cccs2)c2nnnn2C2CCCC2)CC1` (stereo not given), the inhibition is inactive: 7.69%. Then `CCCCn1nnnc1C(c1cccc(OC)c1OC)N1CCC(n2c(=O)[nH]c3ccccc32)CC1` (stereo not given), with inactive: 15.7%.

On to `COc1cccc(C(c2nnnn2C(C)(C)C)N2CCC(n3c(=O)[nH]c4ccccc43)CC2)c1OC` (stereo not given), for which the inhibition was inactive: 12.6%. `CCOC(=O)N1CCC(Nc2ccc(C)cc2)CC1`: the inhibition was inactive: 5.24%.

Consider `N/C(=N\O)c1c(N)no[n+]1[O-]`, for which the inhibition was inactive: 8.68%. Next, `N#Cc1ccc(C(=O)NCC2(N3CCCCC3)CCCCC2)cc1`: inactive: -33.8%; `CC(C)(C)OC(=O)N1CCC(N(C(=O)c2ccccc2)c2ccc(Cl)cc2)CC1`: inactive: -0.46%.

Regarding `CC(C)(C)n1nnnc1C(c1cccc2ccccc12)N1CCC(n2c(=O)[nH]c3ccccc32)CC1` (stereo not given), the inhibition was inactive: 49.4%. Next, `CN(C)C1(CNC(=O)c2cccc(C#N)c2)CCCCC1`: inactive: 0.29%. Next, `c1ccc(CN2CCC(Nc3ccccc3)CC2)cc1`: inactive: -9.98%; `O=c1[nH]c2ccccc2n1C1CCN(C(c2ccccc2)c2nnnn2C2CCCC2)CC1` (stereo not given): inactive: 4.43%. On to `CCCN1CCC(Nc2cc(OC)cc(OC)c2)CC1`, for which the inhibition was inactive: 4.34%. Then `Cc1cc(N(CCCl)CCCl)ccc1C=O`, with inactive: 9.36%; and `Cc1ccc(C(=O)NCC2(N3CCCCC3)CCCCC2)o1`, with inactive: -16.9%. `Fc1ccccc1NC1CCN(Cc2ccccc2)CC1`: the inhibition was inactive: 0.87%.

For the compound `Cc1ccc(NC2(C#N)CCN(Cc3ccccc3)CC2)cc1`, the inhibition was inactive: -9.13%. Then `CC(=O)N(c1ccccc1)C1CCNCC1`, with inactive: 2.78%; and `COc1cccc(C(c2nnnn2C2CCCCC2)N2CCC(n3c(=O)[nH]c4ccccc43)CC2)c1OC` (stereo not given), with inactive: 30.7%. With `CCC(c1nnnn1C1CCCCC1)N1CCC(n2c(=O)[nH]c3ccccc32)CC1` (stereo not given), the inhibition is inactive: 8.59%. `O=c1[nH]c2ccccc2n1C1CCN(C(c2ccnc3ccccc23)c2nnnn2C2CCCCC2)CC1` (stereo not given): the inhibition is inactive: 13.6%. Then `COc1cc(OC)cc(C(=O)NCC2(N3CCCCC3)CCCCC2)c1`, with inactive: 5.8%.

On to `O=C(NCC1(N2CCCCC2)CCCCC1)c1ccco1`, for which the inhibition is inactive: -2.29%.

For `Cn1c(=O)[nH]cc(N(CCCl)CCCl)c1=O`, the inhibition was inactive: -12.8%. Next, `CN(C)c1ccc(C(=O)NCC2(N3CCCCC3)CCCCC2)cc1`: inactive: -16.8%; `Cc1ccccc1NC1(C#N)CCN(Cc2ccccc2)CC1`: inactive: -3.84%; `CC(C)(C)n1nnnc1C(c1ccnc2ccccc12)N1CCC(n2c(=O)[nH]c3ccccc32)CC1` (stereo not given): inactive: -7.72%. Then `COc1ccc(C(c2nnnn2C2CCCCC2)N2CCC(n3c(=O)[nH]c4ccccc43)CC2)cc1` (stereo not given), with inactive: 32.9%.

On to `CCN1CCC(Nc2cccc(F)c2)CC1`, for which the inhibition was inactive: -6.8%. Next, `CC(C)(C)OC(=O)N1CCC(Nc2ccccc2)CC1`: inactive: 0.43%; `NN(c1ccccc1)C1CCN(CCc2ccccc2)CC1`: inactive: -20.1%. For `O=C(O)C1(Nc2ccccc2)CCN(Cc2ccccc2)CC1`, the inhibition is inactive: -28.6%. On to `CCCOc1ccc(C(=O)NCC2(N(C)C)CCCCC2)cc1`, for which the inhibition was inactive: -19.9%. Then `O=c1[nH]c2ccccc2n1C1CCN(C(c2cc3ccccc3o2)c2nnnn2C2CCCC2)CC1` (stereo not given), with inactive: 24.5%; and `CCOc1ncccc1C(=O)NCC1(N2CCOCC2)CCCCC1`, with inactive: -15.8%.

As for `CN1CCC(Nc2ccc(F)c(Cl)c2)CC1`, the inhibition was inactive: 3.8%. For the compound `CN1CCC(Nc2ccc(Cl)cc2)CC1`, the inhibition was inactive: 11.8%. As to `COc1cccc(C(=O)N(c2cc(C)cc(C)c2)C2CCN(C(=O)OC(C)(C)C)CC2)c1`, the inhibition was inactive: 2.2%. Then `COc1cccc(C(c2nnnn2C2CCCC2)N2CCC(n3c(=O)[nH]c4ccccc43)CC2)c1OC` (stereo not given), with inactive: 4.99%. For the compound `COc1cc(OC)cc(C(=O)NCC2(N3CCOCC3)CCCCC2)c1`, the inhibition is inactive: 21.8%. In the case of `CCC(CO)(C(=O)OC1CN2CCC1CC2)c1ccccc1` (stereo not given), the inhibition is inactive: -6.91%. Regarding `CSc1ccccc1C(=O)NCC1(N2CCCCC2)CCCCC1`, the inhibition was inactive: -8.06%. Next, `Cc1cccc(NC2(C#N)CCN(Cc3ccccc3)CC2)c1`: inactive: 5.29%. Then `COc1ccc(C(=O)NCC2(N3CCCCC3)CCCCC2)cc1`, with inactive: 0.66%. Turning to `CCC(c1nnnn1C1CCCC1)N1CCC(n2c(=O)[nH]c3ccccc32)CC1` (stereo not given), the inhibition was inactive: -7.28%.

For `COc1ccc(C(=O)NCC2(N3CCCCC3)CCCCC2)c(OC)c1OC`, the inhibition is inactive: 9.83%.

Turning to `CC(C)(C)OC(=O)N1CCC(N(C(=O)c2ccccc2)c2ccc(F)cc2)CC1`, the inhibition is inactive: -0.97%.

For `O=C(NCC1(N2CCCCC2)CCCCC1)c1ccc(=O)[nH]c1`, the inhibition was inactive: -13.5%. Then `CCCCn1nnnc1C(c1cccs1)N1CCC(n2c(=O)[nH]c3ccccc32)CC1` (stereo not given), with inactive: 12%; and `CCCCn1nnnc1C(CC)N1CCC(n2c(=O)[nH]c3ccccc32)CC1` (stereo not given), with inactive: 7.63%; and `O=C(NCC1(N2CCCCC2)CCCCC1)c1cccs1`, with inactive: 6.85%. Regarding `O=c1[nH]c2ccccc2n1C1CCN(C(c2cc3ccccc3o2)c2nnnn2C2CCCCC2)CC1` (stereo not given), the inhibition is inactive: 47.7%.

For the compound `O=C(OC1CN2CCC1CC2)C1c2ccccc2Oc2ccccc21` (stereo not given), the inhibition was inactive: 13.8%. In the case of `N#CC1(Nc2ccccc2)CCN(Cc2ccccc2)CC1`, the inhibition is inactive: -15.7%.
